Consider 1 substance from patent US20040228820A1, “Compositions comprising an amidine and an alkane polyol” (The Procter & Gamble Company, priority 2003, published 2004).

The series can be described thus: Stabilisation of amidines in aqueous solution by alkane polyols.

For Hexylene glycol, the “Stabilises Amidines?” value is listed as “No”.
